Data published in article PMC4040926, “Re-examining how complexin inhibits neurotransmitter release” (eLife, 2014).

The chains behind the UniProt entries cited, without tags or fusion partners. Residues count along the entry.
UniProt P63045, 29-60, chain 1 of 4: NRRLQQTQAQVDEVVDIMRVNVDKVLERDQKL
UniProt P63045, 29-93, chain 1 of 4: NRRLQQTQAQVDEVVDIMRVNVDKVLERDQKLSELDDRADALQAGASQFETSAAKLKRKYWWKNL
SNARE complex containing synaptobrevin truncated at residue 60, UniProt P32851, 191-253, chain 2 of 4: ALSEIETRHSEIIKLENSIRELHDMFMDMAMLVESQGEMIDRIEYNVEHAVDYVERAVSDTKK
SNARE complex containing synaptobrevin truncated at residue 60, UniProt P60880, 141-203, chain 4 of 4: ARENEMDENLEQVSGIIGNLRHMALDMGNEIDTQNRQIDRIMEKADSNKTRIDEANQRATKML
SNARE complex containing synaptobrevin truncated at residue 60, UniProt P60880, 11-82, chain 3 of 4: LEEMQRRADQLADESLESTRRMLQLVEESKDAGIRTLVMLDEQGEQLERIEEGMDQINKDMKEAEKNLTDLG

B1: CpxI(47-134), rat complexin I central helix plus C-terminus (lacks the accessory helix) (domain or fragment, UniProt P63041 47-134, looked up)
chain: ERKAKYAKMEAEREVMRQGIRDKYGIKKKEEREAEAQAAMEANSEGSLTRPKKAIPPGCGDEPEEEDESILDTVIKYLPGPLQDMFKK
notes: source: E. coli, purified
B2: CpxI(26-83) D27L, E34F, R37A superclamp mutant (domain or fragment, rat, UniProt P63041 26-83, looked up)
chain: KLPDAAKKFEEAQEALRQAEEERKAKYAKMEAEREVMRQGIRDKYGIKKKEEREAEAQ
notes: complexin I (CpxI), rat, residues 26-83, superclamp mutant; Made from the rat CpxI(26-83) vector; Uniformly 2H,15N-labelled where it is the observed species in NMR; also called CpxI(26-83)supcl; Cpx(26-83)supcl; source: E. coli, purified

How the values were obtained:
Settings in all cases: both partners purified
[1] = molecular target: T1, SNARE complex containing synaptobrevin truncated at residue 60 (rat | human, UniProt P63045 29-60; P32851 191-253; P60880 11-82; P60880 141-203); assay: ITC; direct titration: 200 μM CpxI(47-134) into 10-15 μM SNARE complex in the chamber; 37°C, PBS pH 7.4 with 0.25 mM TCEP; single-site model
[2] = molecular target: non-truncated minimal SNARE complex (SNARE motifs of synaptobrevin, syntaxin-1 and SNAP-25) (rat | human, UniProt P63045 29-93; P32851 191-253; P60880 11-82; P60880 141-203); assay: as above
[3] = molecular target: T1, SNARE complex containing synaptobrevin …; assay: ITC; competition: 200 μM CpxI fragment titrated into 10-15 μM SCΔ60 with 1.5 equivalents of CpxI(47-134); 37°C, PBS pH 7.4 with 0.25 mM TCEP; apparent constants from a single-site model

| Binder | Kd [1] [µM] | dH [1] [kcal/mol] | stoichiometry N [1] | Kd [2] [µM] | dH [2] [kcal/mol] | stoichiometry N [2] | apparent Kd [3] [µM] | apparent dH [3] [kcal/mol] |
| --- | --- | --- | --- | --- | --- | --- | --- | --- |
| B1 | 2.39 ± 0.19 | -19.5 | 0.92 | 0.339 ± 0.009 | -32.6 | 0.95 | 3.73 ± 0.57 | -5.5 |
| B2 |  |  |  |  |  |  | 4.03 ± 0.89 | -5.1 |
